Molecules are shown by their SMILES.

Protein sequences, listed by entry. Tags and fused reporters are not part of them.
UniProt P51681, whole entry: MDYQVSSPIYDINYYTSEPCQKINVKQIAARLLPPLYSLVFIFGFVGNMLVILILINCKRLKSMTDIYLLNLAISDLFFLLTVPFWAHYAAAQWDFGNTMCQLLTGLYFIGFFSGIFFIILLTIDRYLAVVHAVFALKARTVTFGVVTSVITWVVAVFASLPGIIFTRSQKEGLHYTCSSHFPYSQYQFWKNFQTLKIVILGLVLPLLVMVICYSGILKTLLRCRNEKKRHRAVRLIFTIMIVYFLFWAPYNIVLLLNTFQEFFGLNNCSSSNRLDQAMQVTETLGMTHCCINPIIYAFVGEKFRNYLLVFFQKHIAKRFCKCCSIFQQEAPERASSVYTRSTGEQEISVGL

The target in the test is C-C chemokine receptor type 5 (Homo sapiens, UniProt P51681). The experiment in a line: Inhibition of RANTES binding to the human C-C chemokine receptor type 5 (CCR5).

Compound `CCO/N=C(/c1ccc(Br)cc1)C1CCN(C2(C)CCN(C(=O)c3c(Br)cncc3Br)CC2)CC1` yielded a Ki of 0.3 nM.
In the case of `CCO/N=C(/c1ccc(Br)cc1)C1CCN(C2(C)CCN(C(=O)c3c(Cl)cncc3Cl)CC2)CC1`, the affinity corresponds to a Ki of 0.4 nM.

By Ki is commonly meant the dissociation constant of the complex between target and ligand, obtained from inhibition or displacement.

Source of the values: ChEMBL document CHEMBL1144903, “Generation of predictive pharmacophore models for CCR5 antagonists: study with piperidine- and piperazine-based compounds as a new class of HIV-1 entry inhibitors” (J Med Chem, 2003).
